The values below are quoted from earlier work in PMC3631442.

By UniProt entry, the sequences of proteins in these tests, tags left out. Where a name states a change or a piece, a line headed by the entry shows the natural chain unless it says otherwise. Residues count along the entry.
UniProt O43521, 141-166: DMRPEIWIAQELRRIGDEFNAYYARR
UniProt Q16548: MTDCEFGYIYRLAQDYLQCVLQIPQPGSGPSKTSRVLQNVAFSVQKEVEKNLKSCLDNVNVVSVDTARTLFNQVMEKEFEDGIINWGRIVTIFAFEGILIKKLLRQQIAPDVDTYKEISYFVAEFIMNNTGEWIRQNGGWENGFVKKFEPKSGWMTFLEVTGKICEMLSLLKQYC

The data set deals with Bim BH3 BH3 (Homo sapiens) (UniProt O43521). The settings on record: cited from earlier work.

As usually defined, the Kd is the constant that tells how readily two partners part at equilibrium. Bfl-1 (from UniProt Q16548): the dissociation constant Kd was 50 nM.
